How the values were obtained:
μ-opioid receptor [1] = target: T1, μ-opioid receptor (Homo sapiens, UniProt P35372); assay: In vitro mu-opioid receptor binding assay ([3H]-diprenorphine displacement); conditions: read-out: Ki [Average ± Std Deviation] Opioid Receptor Mu
[2] = target: recombinant delta opioid receptor (Homo sapiens, UniProt P41143); assay: In vitro delta-opioid receptor binding assay ([3H]-Naltrindole displacement)
[3] = target: T2, human opioid receptor-like (ORL-1) (Homo sapiens, UniProt P41146); assay: In vitro ORL-1 receptor functional assay ([35S]GTPγS binding); type: biochemical; conditions: mean ± SEM; for EC50: read-out: ORL-1 GTPγS EC50
μ-opioid receptor [4] = target: T1, μ-opioid receptor; assay: In vitro mu-opioid receptor functional assay ([35S]GTPγS); type: biochemical; conditions: mean ± SEM; for EC50: read-out: Mu opioid receptor GTPγS EC50
kappa opioid receptor = kappa opioid receptor (Homo sapiens, UniProt P41145); assay: In vitro kappa-opioid receptor functional assay ([35S]GTPγS); type: biochemical; conditions: mean ± SEM; for EC50: read-out: Kappa opioid receptor GTPγS EC50
[5] = target: T2, human opioid receptor-like (ORL-1); assay: In vitro ORL-1 receptor binding assay ([3H]-nociceptin displacement)

Compound | Ki (μ-opioid receptor [1]) [µM] | Ki [2] [µM] | ORL-1 GTPγS Emax [3] [%] | EC50 [3] [µM] | EC50 (μ-opioid receptor [4]) [µM] | Kappa opioid receptor GTPγS Emax (kappa opioid receptor) [%] | EC50 (kappa opioid receptor) [µM] | Ki [5] [µM] | Mu opioid receptor GTPγS Emax (μ-opioid receptor [4]) [%]
COc1ccc(NC(=O)c2nc3ccccc3n([C@H]3C[C@H]4CC[C@@H](C3)N4C3CCCCCCC3)c2=O)cn1 | 0.21 | 1.71 | 94.0 ± 3.6 | 0.0413 | 79.3 | 8.7 ± 0.3 | 0.831 | 0.0031 | 
O=C(O)c1nc2ccccc2n([C@H]2C[C@H]3CC[C@@H](C2)N3C23CC4CC(CC(C4)C2)C3)c1=O |  |  |  |  |  |  |  | 0.0154 | 
NC(=O)[C@H](CO)Nc1nc2ccccc2n([C@H]2C[C@H]3CC[C@@H](C2)N3C2CCCCCCC2)c1=O | 0.196 | 29.2 | 83.3 ± 8.0 | 0.0931 | 2.15 | 12.7 ± 2.7 | 3.15 | 0.0086 | 14
O=C(O)[C@@H]1CN(CCNc2nc3ccccc3n([C@H]3C[C@H]4CCC[C@@H](C3)N4C34CC5CC(CC(C5)C3)C4)c2=O)C[C@H]1C(=O)O |  |  |  |  |  |  |  | 0.587 | 
O=C(N[C@@H](CO)C(=O)O)C1Nc2ccccc2N([C@H]2C[C@H]3CC[C@@H](C2)N3C2CCCCCCC2)C1=O (stereo partly drawn) | 0.422 | 26 |  | 0.594 | 3.58 |  | 4.68 | 0.0437 | 
O=C(O)C1(Nc2nc3ccccc3n([C@H]3C[C@H]4CC[C@@H](C3)N4C3CCCCCCC3)c2=O)CCCCC1 | > 20 | > 20 | 39 ± 1 | 1.77 |  | 0 | > 20 |  | 
CCOC(=O)[C@@H]1CN(CCNc2nc3ccccc3n([C@H]3C[C@H]4CCC[C@@H](C3)N4C34CC5CC(CC(C5)C3)C4)c2=O)C[C@H]1C(=O)OCC |  |  |  |  |  |  |  | 0.493 | 
CC(C)(C)CC(C)(C)N1[C@@H]2CCC[C@H]1C[C@@H](n1c(=O)c(C(=O)O)nc3ccccc31)C2 | > 20 | > 20 | 105.3 ± 5.7 | 0.017 |  |  |  | 0.0028 | 
CC(C)(C)[C@H]1CC[C@H](N2[C@@H]3CC[C@H]2C[C@@H](n2c(=O)c(C(=O)O)nc4ccccc42)C3)CC1 |  |  |  |  |  |  |  | 0.962 | 
O=C(O)c1nc2ccccc2n([C@H]2C[C@H]3CC[C@@H](C2)N3C2C3CC4CC(C3)CC2C4)c1=O (stereo partly drawn) | 11 |  | 33.3 ± 2.2 | 0.271 |  |  |  | 0.0899 | 
CC(C)[C@H]1CC[C@@H](N2[C@@H]3CC[C@H]2C[C@@H](n2c(=O)c(C(=O)O)nc4ccccc42)C3)CC1 | 5.3 | 68.8 | 67.8 ± 1.9 | 3.57 |  |  |  | 0.131 | 
O=C(O)c1nc2ccccc2n([C@H]2C[C@H]3CC[C@@H](C2)N3C2CCCCCC2)c1=O |  |  |  |  |  |  |  | 1.34 | 
O=C(O)CNC(=O)c1nc2ccccc2n([C@H]2C[C@H]3CC[C@@H](C2)N3C2CCCCCCC2)c1=O | 0.488 | 17.6 | 102.7 ± 2.7 | 0.209 | 1.35 | 12.7 ± 1.5 | 4.34 | 0.0157 | 12.0 ± 0.8
O=C(O)CN[C@H]1CCN(c2nc3ccccc3n([C@H]3C[C@H]4CC[C@@H](C3)N4C3CCCCCCC3)c2=O)C1 | 16.9 | > 20 | 59 ± 2 | 0.471 |  | 4.3 ± 1.3 | > 20 | 0.0299 | 
O=C(O)c1nc2ccccc2n([C@H]2C[C@H]3CC[C@@H](C2)N3C23C[C@H]4C[C@@H](C2)C[C@](O)(C4)C3)c1=O |  |  |  |  |  |  |  | 0.912 | 
CC(C)[C@H]1CC[C@H](N2[C@@H]3CC[C@H]2C[C@@H](n2c(=O)c(C(=O)O)nc4ccccc42)C3)CC1 |  |  |  |  |  |  |  | 0.4 | 
CC(C)(C)[C@H]1CC[C@@H](N2[C@@H]3CC[C@H]2C[C@@H](n2c(=O)c(C(=O)O)nc4ccccc42)C3)CC1 |  |  |  |  |  |  |  | 1.19 | 
CN(CC(=O)O)[C@H]1CCN(c2nc3ccccc3n([C@H]3C[C@H]4CC[C@@H](C3)N4C3CCCCCCC3)c2=O)C1 | 8.93 | 72.5 | 73.3 ± 3.7 | 0.618 |  | 8.0 ± 1 | > 20 | 0.0215 | 
O=C(N[C@@H](CO)C(=O)O)c1nc2ccccc2n([C@H]2C[C@H]3CC[C@@H](C2)N3C2CCCCCCC2)c1=O | 0.462 | 26.1 | 107.7 ± 3.7 | 0.183 | 1.75 | 8.3 ± 0.3 | 3.85 | 0.0135 | 9.7 ± 0.6
CN(CC(=O)O)[C@H]1CCN(c2nc3ccccc3n([C@@]3(C)C[C@H]4CCC[C@@H](C3)N4C3CCCCCCC3)c2=O)C1 | 0.689 | 1.16 | 57.0 |  |  | 20.0 |  | 0.0229 | 31.7
CC12CC3CC(C)(C1)CC(N1[C@@H]4CCC[C@H]1C[C@@H](n1c(=O)c(C(=O)O)nc5ccccc51)C4)(C3)C2 | 4.75 |  | 68.7 ± 3.4 | 0.293 |  |  |  | 0.0381 | 
O=C(O)[C@@H](CO)Nc1nc2ccccc2n([C@H]2C[C@H]3CC[C@@H](C2)N3C2CCCCCCC2)c1=O |  | 57.7 | 35.3 ± 2.3 | 0.0436 | 1.06 | 18 ± 2 |  |  | 93
O=C(O)c1nc2ccccc2n([C@H]2C[C@H]3CCC[C@@H](C2)N3C23CC4CC(CC(C4)C2)C3)c1=O | 17.2 |  | 60.0 ± 1.7 | 1.83 |  |  |  |  | 

— US9527840B2, “Substituted-quinoxaline-type piperidine compounds and the uses thereof” (priority 2007, dated 2016)
